What follows are compounds tested on uninfected MT-4 cells (assay: Test B: Cytotoxicity Assay). Conditions: same protocol as Test A, 5 days.
Assay type: cell-based
Procedure: MT-4 cells were next mixed with HIV-IIIb at an m.o.i of 0.003 for 1 hour, after which time 35 μL of virus/cell mixture (2000 cells) was immediately added to each well containing 40 μL of diluted compound. The plates were then incubated at 37° C. for 5 days. After 5 days of incubation, 25 μl of 2× concentrated CellTiter-Glo™ Reagent (catalog #G7571, Promega Biosciences, Inc., Madison, Wis.) was added to each well containing MT-4 cells. Cell lysis was carried out by incubating at room temperature for 10 min and then chemiluminescence was read.
Test B: Cytotoxicity Assay
Compound cytotoxicity and the corresponding CC50 values was determined using the same protocol as described in the antiviral assay (Test A) except that uninfected cells were used.
In the case of Cn1nc(NS(C)(=O)=O)c2c(Cl)ccc(-c3ccc(C#CC(C)(C)O)nc3[C@H](Cc3cc(F)cc(F)c3)NC(=O)Cn3nc(C(F)(F)F)c4c3C(F)(F)[C@@H]3C[C@H]43)c21 [Compound 78, N—((S)-1-(3-(4-chloro-1-methyl-3-(methylsulfonamido)-1H-indazol-7-yl)-6-(3-hydroxy-3-methylbut-1-yn-1-yl)pyridin-2-yl)-2-(3,5-difluorophenyl)ethyl)-2-((3bS,4aR)-5,5-difluoro-3-(trifluoromethyl)-3b,4,4a,5-tetrahydro-1H-cyclopropa[3,4]cyclopenta[1,2-c]pyrazol-1-yl)acetamide], the CC50 is reported as 14.4 µM.
Compound COc1ccc(-c2ccc(C#CC(C)(C)O)nc2[C@H](Cc2cc(F)cc(F)c2)NC(=O)Cn2nc(C(F)F)c3c2C(F)(F)[C@@H]2C[C@H]32)c2c1c(NS(C)(=O)=O)nn2C [Compound 141D, 2-((3bS,4aR)-3-(difluoromethyl)-5,5-difluoro-3b,4,4a,5-tetrahydro-1H-cyclopropa[3,4]cyclopenta[1,2-c]pyrazol-1-yl)-N—((S)-2-(3,5-difluorophenyl)-1-(6-(3-hydroxy-3-methylbut-1-yn-1-yl)-3-(4-methoxy-1-methyl-3-(methylsulfonamido)-1H-indazol-7-yl)pyridin-2-yl)ethyl)acetamide] has a CC50 of 19.8 µM.
With Cn1nc(NS(C)(=O)=O)c2c(Cl)ccc(-c3ccc(C#CC(C)(O)C(F)F)nc3[C@H](Cc3cc(F)cc(F)c3)NC(=O)Cn3nc(C(F)F)c4c3C(F)(F)[C@@H]3C[C@H]43)c21 (stereo partly drawn) [Compound 169, N-((1S)-1-(3-(4-chloro-1-methyl-3-(methylsulfonamido)-1H-indazol-7-yl)-6-(4,4-difluoro-3-hydroxy-3-methylbut-1-yn-1-yl)pyridin-2-yl)-2-(3,5-difluorophenyl)ethyl)-2-((3bS,4aR)-3-(difluoromethyl)-5,5-difluoro-3b,4,4a,5-tetrahydro-1H-cyclopropa[3,4]cyclopenta[1,2-c]pyrazol-1-yl)acetamide] the CC50 was 12.4 µM.
Cn1nc(NS(C)(=O)=O)c2c(Cl)ccc(-c3ccc(C#CC(C)(C)O)nc3[C@H](Cc3cc(F)cc(F)c3)NC(=O)Cn3nc(C(F)F)c4c3C(F)(F)[C@@H]3C[C@H]43)c21 [Compound 19G, (S)—N-(1-(3-(4-chloro-1-methyl-3-(methylsulfonamido)-1H-indazol-7-yl)-6-(3-hydroxy-3-methylbut-1-ynyl)pyridin-2-yl)-2-(3,5-difluorophenyl)ethyl)-2-((3bS,4aR)-5,5-difluoro-3-(difluoromethyl)-3b,4,4a,5-tetrahydro-1H-cyclopropa[3,4]cyclopenta[1,2-c]pyrazol-1-yl)acetamide] was tested, and the CC50 was 19.6 µM.
Compound Cc1ccc(-c2ccc(C#CC(C)(C)O)nc2[C@H](Cc2cc(F)cc(F)c2)NC(=O)Cn2nc(C(F)F)c3c2C(F)(F)[C@@H]2C[C@H]32)c2c1c(NS(C)(=O)=O)nn2C [Compound 112D, 2-((3bS,4aR)-3-(difluoromethyl)-5,5-difluoro-3b,4,4a,5-tetrahydro-1H-cyclopropa[3,4]cyclopenta[1,2-c]pyrazol-1-yl)-N—((S)-2-(3,5-difluorophenyl)-1-(3-(1,4-dimethyl-3-(methylsulfonamido)-1H-indazol-7-yl)-6-(3-hydroxy-3-methylbut-1-yn-1-yl)pyridin-2-yl)ethyl)acetamide] has a CC50 of 13.9 µM.
Cn1nc(NS(C)(=O)=O)c2c(F)ccc(-c3ccc(C#CC(C)(C)O)nc3[C@H](Cc3cc(F)cc(F)c3)NC(=O)Cn3nc(C(F)F)c4c3C(F)(F)[C@@H]3C[C@H]43)c21 [Compound 75, 2-((3bS,4aR)-3-(difluoromethyl)-5,5-difluoro-3b,4,4a,5-tetrahydro-1H-cyclopropa[3,4]cyclopenta[1,2-c]pyrazol-1-yl)-N—((S)-2-(3,5-difluorophenyl)-1-(3-(4-fluoro-1-methyl-3-(methylsulfonamido)-1H-indazol-7-yl)-6-(3-hydroxy-3-methylbut-1-yn-1-yl)pyridin-2-yl)ethyl)acetamide] was tested, and the CC50 was > 40.3 µM.
